The results in this text go back to patent publication US10526320B2, “Pyrrolidine derivatives as PPAR agonists” (GUANGDONG RAYNOVENT BIOTECH CO., LTD., priority 2016, dated 2020).

The chains behind the UniProt entries cited, without tags or fusion partners.
UniProt Q07869, whole entry: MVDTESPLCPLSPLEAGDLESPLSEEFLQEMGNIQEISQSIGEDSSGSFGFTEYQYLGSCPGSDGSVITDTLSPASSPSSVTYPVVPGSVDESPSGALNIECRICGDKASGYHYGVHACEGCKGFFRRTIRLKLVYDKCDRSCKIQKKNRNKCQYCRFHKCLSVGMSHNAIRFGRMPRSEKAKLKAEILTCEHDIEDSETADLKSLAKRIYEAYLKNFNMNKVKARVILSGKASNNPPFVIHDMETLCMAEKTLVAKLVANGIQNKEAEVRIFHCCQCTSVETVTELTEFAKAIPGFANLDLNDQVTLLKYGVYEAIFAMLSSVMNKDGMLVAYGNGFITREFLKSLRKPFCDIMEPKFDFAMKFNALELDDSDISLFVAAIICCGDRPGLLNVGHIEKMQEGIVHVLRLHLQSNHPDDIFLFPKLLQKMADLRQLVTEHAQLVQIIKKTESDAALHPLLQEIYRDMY
UniProt Q03181, whole entry: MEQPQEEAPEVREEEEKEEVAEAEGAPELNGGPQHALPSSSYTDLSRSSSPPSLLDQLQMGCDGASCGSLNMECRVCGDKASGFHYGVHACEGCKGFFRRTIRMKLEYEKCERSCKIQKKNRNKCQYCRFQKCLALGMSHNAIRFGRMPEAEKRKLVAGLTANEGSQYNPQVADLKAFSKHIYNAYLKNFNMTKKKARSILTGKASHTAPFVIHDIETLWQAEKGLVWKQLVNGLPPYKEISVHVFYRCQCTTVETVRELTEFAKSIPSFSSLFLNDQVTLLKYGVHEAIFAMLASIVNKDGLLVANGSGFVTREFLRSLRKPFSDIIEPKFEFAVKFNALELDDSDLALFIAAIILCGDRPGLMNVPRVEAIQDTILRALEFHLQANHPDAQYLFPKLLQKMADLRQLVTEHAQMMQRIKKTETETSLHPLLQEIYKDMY
UniProt P37231, whole entry: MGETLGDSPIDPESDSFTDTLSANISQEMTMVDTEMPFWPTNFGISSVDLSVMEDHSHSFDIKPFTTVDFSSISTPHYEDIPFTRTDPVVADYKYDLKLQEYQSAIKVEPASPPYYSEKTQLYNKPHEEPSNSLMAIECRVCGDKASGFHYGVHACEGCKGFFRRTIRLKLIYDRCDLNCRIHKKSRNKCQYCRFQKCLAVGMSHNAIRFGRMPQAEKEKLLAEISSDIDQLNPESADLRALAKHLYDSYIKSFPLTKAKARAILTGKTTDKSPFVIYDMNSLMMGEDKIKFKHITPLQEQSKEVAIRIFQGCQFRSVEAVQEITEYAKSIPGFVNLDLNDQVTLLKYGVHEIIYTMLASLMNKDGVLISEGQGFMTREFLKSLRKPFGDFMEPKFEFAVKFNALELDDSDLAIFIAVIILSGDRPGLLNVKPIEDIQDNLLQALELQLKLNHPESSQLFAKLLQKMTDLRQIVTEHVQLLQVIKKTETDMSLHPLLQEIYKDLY

Common to all, as to type: cell-based
One experiment has as its target PPAR Alpha (Homo sapiens, UniProt Q07869). Nature of the experiment: PathHunter NHR protein interaction / nuclear translocation agonist test, PPAR Alpha. Particulars: read-out: PPAR Alpha EC50 nM; agonist mode.
In another experiment the target is PPAR Delta (Homo sapiens, UniProt Q03181). Nature of the experiment: PathHunter NHR protein interaction / nuclear translocation agonist test, PPAR Delta. Particulars: read-out: PPAR Delta EC50 nM; agonist mode.
For a further experiment, the target named is PPAR Gamma (Homo sapiens, UniProt P37231). Nature of the experiment: PathHunter NHR protein interaction / nuclear translocation agonist test, PPAR Gamma. The note with it: read-out: PPAR Gamma EC50 nM; agonist mode.

A value given as a limit tells only on which side of the number the result lay.

For `Cc1cc(CCC2CN(C(=O)Oc3ccccc3)CC2C(=O)c2ccc(Br)cc2)cc(C)c1OC(C)(C)C(=O)O` (single isomer, unassigned), the EC50 at PPAR Alpha is less than 100 nM; at PPAR Delta, less than 100 nM; on PPAR Gamma, 200 to 250 nM.

With `COCCN1CC(CCc2cc(C)c(OC(C)(C)C(=O)O)c(C)c2)C(C(=O)c2ccc(SC)cc2)C1` (single isomer, unassigned), the EC50 at PPAR Alpha and at PPAR Delta was 200 to 250 nM each time.

`CSc1ccc(C(=O)C2CN(C(=O)Oc3ccc(Cl)cc3)CC2CCc2cc(C)c(OC(C)(C)C(=O)O)c(C)c2)cc1` (single isomer, unassigned) [Compound 45]: the EC50 is less than 100 nM on PPAR Alpha, 150 to 200 nM at PPAR Delta and greater than 250 nM at PPAR Gamma.

In the case of `CSc1ccc(C(=O)C2CN(C(=O)Oc3ccc(Cl)cc3)CC2CCc2cc(C)c(OC(C)(C)C(=O)O)c(C)c2)cc1` (single isomer, unassigned) [Compound 44], the EC50 on PPAR Alpha is less than 100 nM; at PPAR Delta it was 200 to 250 nM; on PPAR Gamma it was greater than 250 nM.

With `CSc1ccc(CC2CN(C(=O)Oc3ccc(Cl)cc3)CC2c2cc(C)c(OC(C)(C)C(=O)O)c(C)c2)cc1` (single isomer, unassigned) [Compound 32], the EC50 at PPAR Alpha was less than 100 nM; on PPAR Delta, greater than 250 nM.

In the case of `CSc1ccc(C(=O)C2CN(C(=O)Oc3ccccc3)CC2Cc2cc(C)c(OC(C)(C)C(=O)O)c(C)c2)cc1` (single isomer, unassigned), the EC50 at PPAR Alpha and on PPAR Delta was less than 100 nM throughout.

For the compound `CSc1ccc(C(=O)C2CN(C(=O)Oc3ccc(Br)cc3)CC2Cc2cc(C)c(OC(C)(C)C(=O)O)c(C)c2)cc1` (single isomer, unassigned), the EC50 at PPAR Alpha and at PPAR Delta was less than 100 nM in each case.

As to `CSc1ccc(CC2CN(C(=O)Oc3ccc(Cl)cc3)CC2c2cc(C)c(OC(C)(C)C(=O)O)c(C)c2)cc1` (single isomer, unassigned) [Compound 31], the figures for the EC50 on PPAR Alpha and at PPAR Delta were 150 to 200 nM and greater than 250 nM, respectively.

In the case of `CSc1ccc(C(=O)C2CN(C(=O)C(C)C)CC2c2cc(C)c(OC(C)(C)C(=O)O)c(C)c2)cc1` (single isomer, unassigned), the EC50 at PPAR Alpha was greater than 250 nM.

For the compound `CSc1ccc(C(=O)C2CN(C(=O)Oc3ccccc3)CC2Cc2cc(C)c(OCC(=O)O)c(C)c2)cc1` (single isomer, unassigned), the EC50 at PPAR Alpha was in the range of 100 to 150 nM; at PPAR Delta it was 150 to 200 nM; on PPAR Gamma, 200 to 250 nM.

As to `CSc1ccc(C(=O)C2CN(C(=O)N3CCCC3)CC2c2cc(C)c(OC(C)(C)C(=O)O)c(C)c2)cc1` (single isomer, unassigned), the EC50 on PPAR Alpha is 200 to 250 nM; on PPAR Delta it was greater than 250 nM.
